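A five-concentration, 48-hour dose response in 96-well plates underlies each endpoint, interpolated linearly between surrounding concentrations. GI50 = concentration required for 50% inhibition of growth. TGI is the concentration that stops growth completely.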
Assays:
Test in all cases: NCI tumour cell line growth inhibition, 48 h
786-0 renal = system: 786-0 renal
A498 renal = system: A498 renal
A549 NSCLC = system: A549 NSCLC
ACHN renal = system: ACHN renal
CAKI-1 renal = system: CAKI-1 renal
CCRF-CEM leukemia = system: CCRF-CEM leukemia
COLO 205 colon = system: COLO 205 colon
DLD-1 colon = system: DLD-1 colon
DMS 114 small cell lung = system: DMS 114 small cell lung
DMS 273 small cell lung = system: DMS 273 small cell lung
EKVX NSCLC = system: EKVX NSCLC
HCT-15 colon = system: HCT-15 colon
HOP-62 NSCLC = system: HOP-62 NSCLC
HOP-92 NSCLC = system: HOP-92 NSCLC
IGROV1 ovarian = system: IGROV1 ovarian
K-562 leukemia = system: K-562 leukemia
KM12 colon = system: KM12 colon
KM20L2 colon = system: KM20L2 colon
LOX IMVI melanoma = system: LOX IMVI melanoma
LXFL 529 NSCLC = system: LXFL 529 NSCLC
M14 melanoma = system: M14 melanoma
M19-MEL melanoma = system: M19-MEL melanoma
MALME-3M melanoma = system: MALME-3M melanoma
MOLT-4 leukemia = system: MOLT-4 leukemia
NCI-H226 lung = system: NCI-H226 lung
NCI-H23 lung = system: NCI-H23 lung
NCI-H322M lung = system: NCI-H322M lung
NCI-H460 lung = system: NCI-H460 lung
NCI-H522 lung = system: NCI-H522 lung
OVCAR-3 ovarian = system: OVCAR-3 ovarian
OVCAR-4 ovarian = system: OVCAR-4 ovarian
OVCAR-8 ovarian = system: OVCAR-8 ovarian
RPMI-8226 leukemia = system: RPMI-8226 leukemia
RXF 393 renal = system: RXF 393 renal
RXF-631 renal = system: RXF-631 renal
SF-268 CNS = system: SF-268 CNS
SF-295 CNS = system: SF-295 CNS
SF-539 CNS = system: SF-539 CNS
SK-MEL-2 melanoma = system: SK-MEL-2 melanoma
SK-MEL-28 melanoma = system: SK-MEL-28 melanoma
SK-MEL-5 melanoma = system: SK-MEL-5 melanoma
SK-OV-3 ovarian = system: SK-OV-3 ovarian
SN12C renal = system: SN12C renal
SNB-19 CNS = system: SNB-19 CNS
SNB-75 CNS = system: SNB-75 CNS
SNB-78 CNS = system: SNB-78 CNS
SR leukemia = system: SR leukemia
SW-620 colon = system: SW-620 colon
TK-10 renal = system: TK-10 renal
U251 CNS = system: U251 CNS
UACC-257 melanoma = system: UACC-257 melanoma
UACC-62 melanoma = system: UACC-62 melanoma
UO-31 renal = system: UO-31 renal
XF 498 CNS = system: XF 498 CNS

O=[N+]([O-])c1ccc(N=Nc2c(O)[nH]c3ccc([N+](=O)[O-])cc23)c([N+](=O)[O-])c1
GI50 (786-0 renal): 17.7 µM
TGI (786-0 renal): 32.3 µM
GI50 (A498 renal): 14 µM
TGI (A498 renal): 36.4 µM
GI50 (A549 NSCLC): 18.7 µM
TGI (A549 NSCLC): 36.5 µM
GI50 (ACHN renal): 28 µM
TGI (ACHN renal): 79.1 µM
GI50 (CAKI-1 renal): 27.3 µM
TGI (CAKI-1 renal): > 100 µM
GI50 (CCRF-CEM leukemia): 25.5 µM
TGI (CCRF-CEM leukemia): 78.9 µM
GI50 (COLO 205 colon): 23.2 µM
TGI (COLO 205 colon): 65 µM
GI50 (DLD-1 colon): 39.2 µM
TGI (DLD-1 colon): > 100 µM
GI50 (DMS 114 small cell lung): 29 µM
TGI (DMS 114 small cell lung): 75.5 µM
GI50 (DMS 273 small cell lung): 18.1 µM
TGI (DMS 273 small cell lung): 37.1 µM
GI50 (EKVX NSCLC): 37.6 µM
TGI (EKVX NSCLC): > 100 µM
GI50 (HCT-15 colon): 23.7 µM
TGI (HCT-15 colon): 57.7 µM
GI50 (HOP-62 NSCLC): 18.2 µM
TGI (HOP-62 NSCLC): 33.8 µM
GI50 (HOP-92 NSCLC): 19.3 µM
TGI (HOP-92 NSCLC): 36.6 µM
GI50 (IGROV1 ovarian): 51.7 µM
TGI (IGROV1 ovarian): > 100 µM
GI50 (K-562 leukemia): 36.1 µM
TGI (K-562 leukemia): > 100 µM
GI50 (KM12 colon): 27.8 µM
TGI (KM12 colon): 69.1 µM
GI50 (KM20L2 colon): 24.2 µM
TGI (KM20L2 colon): 66 µM
GI50 (LOX IMVI melanoma): 28.1 µM
TGI (LOX IMVI melanoma): 68.4 µM
GI50 (LXFL 529 NSCLC): 37.4 µM
TGI (LXFL 529 NSCLC): > 100 µM
GI50 (M14 melanoma): 23.4 µM
TGI (M14 melanoma): 52.3 µM
GI50 (M19-MEL melanoma): 28.8 µM
TGI (M19-MEL melanoma): 87.5 µM
GI50 (MALME-3M melanoma): 17.8 µM
TGI (MALME-3M melanoma): 34.9 µM
GI50 (MOLT-4 leukemia): 31.7 µM
TGI (MOLT-4 leukemia): > 100 µM
GI50 (NCI-H226 lung): 23.5 µM
TGI (NCI-H226 lung): 64.8 µM
GI50 (NCI-H23 lung): 26 µM
TGI (NCI-H23 lung): 65.4 µM
GI50 (NCI-H322M lung): 20.6 µM
TGI (NCI-H322M lung): 47.9 µM
GI50 (NCI-H460 lung): 20.7 µM
TGI (NCI-H460 lung): 42.5 µM
GI50 (NCI-H522 lung): 20.3 µM
TGI (NCI-H522 lung): 41.2 µM
GI50 (OVCAR-3 ovarian): 18 µM
TGI (OVCAR-3 ovarian): 34.2 µM
GI50 (OVCAR-4 ovarian): 17.9 µM
TGI (OVCAR-4 ovarian): 33.5 µM
GI50 (OVCAR-8 ovarian): 19.9 µM
TGI (OVCAR-8 ovarian): 40.4 µM
GI50 (RPMI-8226 leukemia): 24.6 µM
TGI (RPMI-8226 leukemia): 57 µM
GI50 (RXF 393 renal): 19.4 µM
TGI (RXF 393 renal): 38.3 µM
GI50 (RXF-631 renal): 20.6 µM
TGI (RXF-631 renal): 41.7 µM
GI50 (SF-268 CNS): 36 µM
TGI (SF-268 CNS): > 100 µM
GI50 (SF-295 CNS): 17.7 µM
TGI (SF-295 CNS): 35 µM
GI50 (SF-539 CNS): 21.8 µM
TGI (SF-539 CNS): 49.2 µM
GI50 (SK-MEL-2 melanoma): 46.4 µM
TGI (SK-MEL-2 melanoma): > 100 µM
GI50 (SK-MEL-28 melanoma): 22.1 µM
TGI (SK-MEL-28 melanoma): 63.5 µM
GI50 (SK-MEL-5 melanoma): 19.5 µM
TGI (SK-MEL-5 melanoma): 40.4 µM
GI50 (SK-OV-3 ovarian): 34 µM
TGI (SK-OV-3 ovarian): > 100 µM
GI50 (SN12C renal): 33 µM
TGI (SN12C renal): > 100 µM
GI50 (SNB-19 CNS): 20.2 µM
TGI (SNB-19 CNS): 39.8 µM
GI50 (SNB-75 CNS): 44.5 µM
TGI (SNB-75 CNS): > 100 µM
GI50 (SNB-78 CNS): 31.3 µM
TGI (SNB-78 CNS): 97.1 µM
GI50 (SR leukemia): 28.4 µM
TGI (SR leukemia): 71.8 µM
GI50 (SW-620 colon): 21.7 µM
TGI (SW-620 colon): 47.4 µM
GI50 (TK-10 renal): 17.8 µM
TGI (TK-10 renal): 33.6 µM
GI50 (U251 CNS): 11.9 µM
TGI (U251 CNS): 25.8 µM
GI50 (UACC-257 melanoma): 26.1 µM
TGI (UACC-257 melanoma): 84.1 µM
GI50 (UACC-62 melanoma): 32.6 µM
TGI (UACC-62 melanoma): > 100 µM
GI50 (UO-31 renal): 44.4 µM
TGI (UO-31 renal): > 100 µM
GI50 (XF 498 CNS): 18.9 µM
TGI (XF 498 CNS): 35.6 µM
